# Apparent affinities of Ab-91 variants for a coronavirus HR2 peptide

Target: peptide PDVDLGDISGINAS, taken from heptad repeat 2 (HR2) of SARS-CoV-2 spike.

Parent: Ab-91, a human scFv built as VL, a (GGGGS)3 linker, VH. Only the CDRs of the heavy chain vary.
VL: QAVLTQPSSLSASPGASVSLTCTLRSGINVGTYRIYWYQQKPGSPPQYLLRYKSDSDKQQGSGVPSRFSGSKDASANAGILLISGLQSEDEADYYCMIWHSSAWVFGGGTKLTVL
VH: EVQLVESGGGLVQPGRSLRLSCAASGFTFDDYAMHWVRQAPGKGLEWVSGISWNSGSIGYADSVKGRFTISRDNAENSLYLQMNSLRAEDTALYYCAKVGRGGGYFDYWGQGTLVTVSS

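The parent was found by panning a naive human phage display library on the peptide. The library (AAYL51) carries one to three amino acid substitutions per variant, with no insertions or deletions. The scFvs were displayed on barcoded MATa yeast, the peptide on MATalpha yeast. Mating (16 h, 30 °C) was followed by selection of diploids and sequencing of their barcodes. Scores were corrected for input abundance and mapped to Kd with protein pairs of known affinity run in the same pool. There are three technical replicates.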

Each variant is given by its three heavy chain CDRs, as the data file delimits them; those of the parent are GFTFDDYAMH, GISWNSGSIGYADSVK, VGRGGGYFDY. This list gathers variants with a substitution at Y60 (VH, numbered from residue 1). Kd is apparent (estimated from mating counts) and averaged on the log scale over replicates with a signal. Smaller is tighter. Where no diploid with the target was found in any replicate, the entry reads "nd": below detection, most likely a poor binder, though not proof of it. In this assay the parent's reference entry averaged 72 nM; its copy inside this library read 7.5 nM. Empty control strains, which show no peptide, gave a signal in 21% of pairings with library AAYL51; the median was 34 µM and 95% of these signals were weaker than 1.8 µM. No background was subtracted.

With GFTHDDYAMH | GHSWNSGSIGHADSVK | VGRGGGYFDY the result was 320 µM (3 of 3 replicates).
With GFTFDDYAMH | GISFNSGSIGFADSVK | VGRGGGYFDE the result was 39 nM (3 of 3 replicates).
With YFTFDDYAMH | GISWNSGSIGFADSVK | PGRGGGYFDY the result was nd (0 of 3 replicates).
With GFTFDDYMMH | GISWNDGSIGGADSVK | VGRGGGYFDY the result was 58 µM (2 of 3 replicates).
With GFTFDDYVMH | GISWNSGSIGFADSVK | VGRGGGYFDY the result was 2.5 µM (1 of 3 replicates).
With GFTFDDYAEH | GISWNSGSIGNADSVK | VGRGGGYFFY the result was 6.7 µM (3 of 3 replicates).
With GFTFDDYAMH | GQSWNSYSIGVADSVK | VGRGGGYFDY the result was nd (0 of 3 replicates).
With GFTFDDYAMH | SISWNSGSIGIADSVK | VGRGGGYFDY the result was 130 µM (2 of 3 replicates).
With GFTFDDYAMH | GISWNSGSIGAADSVK | RGRGGGYFDQ the result was nd (0 of 3 replicates).
With GFTFPDYAMH | GISWNSGSIGPADSVK | VRRGGGYFDY the result was 34 µM (1 of 3 replicates).
With GFTFDDYAMH | GISWNSGQIGCAMSVK | VGRGGGYFDY the result was nd (0 of 3 replicates).
With GFTFDDYAMH | GISWNSGSVGWADCVK | VGRGGGYFDY the result was 7.2 µM (2 of 3 replicates).
With GFTFDDMAMH | GISWNSGSIGGADSVK | VGRGGGYFDY the result was nd (0 of 3 replicates).
With GFTFDDVAMH | GISWNSGSIGTADSVK | VGRGGGYFDQ the result was 730 nM (3 of 3 replicates).
With GFTFDDYAMH | GISWNSGSIGHADSVK | VYRVGGYFDY the result was nd (0 of 3 replicates).
With GFTFDLYAMH | GISWNSGSIGRAFSVK | VGRGGGYFDY the result was 120 µM (2 of 3 replicates).
With GFTFDDYHMH | GISWNSGSIGEADMVK | VGRGGGYFDY the result was nd (0 of 3 replicates).
With GFTFDDYAMH | GISWNSGSIGLADSVD | VGSGGGYFDY the result was 5.8 µM (3 of 3 replicates).
With GFTFDDYAMH | GISWNSGSIGRADSVK | VGRGNGYFDY the result was 120 µM (1 of 3 replicates).
With GFTFDDYAMH | GISWNSGSIGFADSVR | VGRGGGYPDY the result was 24 µM (1 of 3 replicates).
With GFTFDDYAMH | GISWNSGSIGKAESVK | VGRGGGYFDY the result was nd (0 of 3 replicates).
With GFTFDDYAMH | GISWNSGSIFPYDSVK | VGRGGGYFDY the result was 100 µM (1 of 3 replicates).
With GFTFDDYAMH | GISWNSGSIGVEDSVK | VGRGGGYFWY the result was 23 µM (3 of 3 replicates).
With GFTFIDYAMH | GISWNTGSIGQADSVK | VGRGGGYFDY the result was nd (0 of 3 replicates).
With GFTFDDYAMG | GISWNSGSIGIADSVF | VGRGGGYFDY the result was nd (0 of 3 replicates).
With GFQFDDYAMP | GISWNSGSIGPADSVK | VGRGGGYFDY the result was 880 µM (1 of 3 replicates).
With GFTFDDYAMH | GISWNSGKIGHADSVK | VGRGGGYFDY the result was nd (0 of 3 replicates).
With GFRFDDYAMH | GISWNSGSIGCADKVK | VGRGGGYFDY the result was nd (0 of 3 replicates).
With GFTFDDYAMH | GISWNWSSIGFADSVK | VGRGGGYFDY the result was nd (0 of 3 replicates).
With GFTFDDYAMH | GISWNSGSIGTATSHK | VGRGGGYFDY the result was nd (0 of 3 replicates).
With GFTFDTYAMH | GISWNSGIIGHADSVK | VGRGGGYFDY the result was nd (0 of 3 replicates).
With GFTFDDYAMH | GIIWNYGSIGLADSVK | VGRGGGYFDY the result was 30 µM (2 of 3 replicates).
With GYTFDDYAMH | GISWPSGSIGWADSVK | VGRGGGYFDY the result was 44 µM (2 of 3 replicates).
With GFTFDDYAMH | GISWNSGSIGMASSVK | VWRGGGYFDY the result was nd (0 of 3 replicates).
With GFTFDDYAMH | GISWNSGSIGSADSGK | VGRGAGYFDY the result was nd (0 of 3 replicates).
With GFTFDHYAMH | GISWNSGSIGRADSMK | VGRGGGYFDY the result was 4.9 µM (1 of 3 replicates).
With GFTFDDYAMH | GISWNSGSIGKADSVM | GGRGGGYFDY the result was 220 µM (3 of 3 replicates).
With GFTFDDYAMH | GISWNSGSIGKAPSVN | VGRGGGYFDY the result was 170 µM (2 of 3 replicates).
With GFTFDDYAMH | GISWNSGSIGDADSVK | VGRGGGHFAY the result was 13 µM (3 of 3 replicates).
With GFTFDSYAMH | GISWNSGSIGWADSVK | KGRGGGYFDY the result was 2.7 µM (1 of 3 replicates).
With GFTFDDYAMH | GISWNSGSGGHADSVK | VGRGGGYFKY the result was 17 µM (1 of 3 replicates).

Top 3 of the variants detected in all replicates, tightest first:

| CDR-H1 | CDR-H2 | CDR-H3 | Kd (apparent) | replicates with signal |
|---|---|---|---|---|
| GFTFDDYAMH | GISFNSGSIGFADSVK | VGRGGGYFDE | 39 nM | 3/3 |
| GFTFDDVAMH | GISWNSGSIGTADSVK | VGRGGGYFDQ | 730 nM | 3/3 |
| GFTFDDYAMH | GISWNSGSIGLADSVD | VGSGGGYFDY | 5.8 µM | 3/3 |

Data: MIT Lincoln Laboratory AlphaSeq set, Engelhart et al. 2022, doi:10.1038/s41597-022-01779-4, as distributed in FLAb.